Antibody variant affinities, Ab-14 heavy chain, assay 1

Reference: Engelhart et al. 2022, doi:10.1038/s41597-022-01779-4. File: FLAb, binding data.

The target is the same throughout: PDVDLGDISGINAS, from the HR2 region of SARS-CoV-2 spike.

Parent scFv Ab-14: VH joined to VL by a (GGGGS)3 linker. Changes lie in the heavy chain CDRs alone.
VH: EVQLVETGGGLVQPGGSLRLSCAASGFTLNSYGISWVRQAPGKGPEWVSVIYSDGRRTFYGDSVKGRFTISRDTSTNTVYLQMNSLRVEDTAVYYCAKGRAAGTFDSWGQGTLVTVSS
VL: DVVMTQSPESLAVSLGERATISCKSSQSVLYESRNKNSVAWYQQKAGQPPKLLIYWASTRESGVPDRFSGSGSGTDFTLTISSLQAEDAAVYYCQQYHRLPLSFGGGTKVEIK

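The parent was found by panning a naive human phage display library on the peptide. Variants in AAYL49 differ from the parent at up to three CDR positions; double and triple changes were sampled at random. AlphaSeq pools MATa yeast showing the antibodies with MATalpha yeast showing the peptide. After mating in shaken culture at 30 °C for 16 h, diploids were selected and their barcode pairs sequenced. Scores were corrected for input abundance and mapped to Kd with protein pairs of known affinity run in the same pool. There are three technical replicates.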

The whole VH of each variant is written out.
Kd is apparent (estimated from mating counts) and averaged on the log scale over replicates with a signal. Smaller is tighter.
"no signal" marks a missing value. The strain was present, yet no cells mated with the target were sequenced in any replicate, which points to weak or no binding.
In this assay the parent's reference entry averaged 4.4 nM; its copy inside this library read 13 µM (one replicate of three).
Background: pairings of library AAYL49 with three empty control strains gave a value in 15% of cases (median 11 µM, 5th percentile 680 nM). Values in that range, when seen in few replicates, are hard to tell from nonspecific mating.

For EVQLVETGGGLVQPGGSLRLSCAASGFTLNSYGISWVRQAPGKGPEWVSVIYSDGARTFATDSVKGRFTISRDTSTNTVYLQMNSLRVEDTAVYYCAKGRAAGTFDSWGQGTLVTVSS, the assay gave 99 nM (3 of 3 replicates).
For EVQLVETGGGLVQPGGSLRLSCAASGFTLNSYKIQWVRQAPGKGPEWVSVIYSDGRRTFYGDSYKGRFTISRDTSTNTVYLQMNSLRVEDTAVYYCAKGRAAGTFDSWGQGTLVTVSS, the assay gave 13 µM (1 of 3 replicates).
For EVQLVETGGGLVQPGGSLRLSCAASGFTLNLYGISWVRQAPGKGPEWVSVIYSDGRRTFYGDSVKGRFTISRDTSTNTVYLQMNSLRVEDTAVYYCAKGRAAGFFDSWGQGTLVTVSS, the assay gave 19 µM (1 of 3 replicates).
For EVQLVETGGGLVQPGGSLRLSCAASGGTLNSDGISWVRQAPGKGPEWVSVIYSDGRRTFYGDSVKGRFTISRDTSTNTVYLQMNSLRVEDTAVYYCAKGRCAGTFDSWGQGTLVTVSS, the assay gave 14 µM (1 of 3 replicates).
For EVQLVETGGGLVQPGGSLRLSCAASGFTLVSYPISWVRQAPGKGPEWVSVIYSDFRRTFYGDSVKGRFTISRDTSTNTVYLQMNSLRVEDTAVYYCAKGRAAGTFDSWGQGTLVTVSS, the assay gave no signal (0 of 3 replicates).
For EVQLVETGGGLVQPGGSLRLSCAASGFTYNSYGISWVRQAPGKGPEWVSVWYSDGRRTFNGDSVKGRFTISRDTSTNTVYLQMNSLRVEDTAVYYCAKGRAAGTFDSWGQGTLVTVSS, the assay gave no signal (0 of 3 replicates).
For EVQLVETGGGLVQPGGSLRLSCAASGFTLNSYGISWVRQAPGKGPEWVSVIYSDYRRTFYGDSVKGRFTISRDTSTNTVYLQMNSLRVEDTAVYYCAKGRVAGTFDSWGQGTLVTVSS, the assay gave no signal (0 of 3 replicates).
For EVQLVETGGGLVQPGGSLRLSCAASGFMLNSYGISWVRQAPGKGPEWVSVIYSDGRRTFYGDSVKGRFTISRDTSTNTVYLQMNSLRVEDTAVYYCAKGRMAGWFDSWGQGTLVTVSS, the assay gave no signal (0 of 3 replicates).
For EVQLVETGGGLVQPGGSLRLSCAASGFKLNSYGISWVRQAPGKGPEWVSVSYSDGRRTFYGDSVKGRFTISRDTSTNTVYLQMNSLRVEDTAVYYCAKGRAAGTFDSWGQGTLVTVSS, the assay gave 3.1 µM (1 of 3 replicates).
For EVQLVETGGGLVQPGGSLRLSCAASGFTNNSYGIMWVRQAPGKGPEWVSVIYSDGRRTFYGDSFKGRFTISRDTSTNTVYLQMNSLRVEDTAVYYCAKGRAAGTFDSWGQGTLVTVSS, the assay gave no signal (0 of 3 replicates).
For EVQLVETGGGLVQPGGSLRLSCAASGFTLNSYLISWVRQAPGKGPEWVSSIYSDGRRTFYGLSVKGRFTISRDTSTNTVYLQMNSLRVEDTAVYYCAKGRAAGTFDSWGQGTLVTVSS, the assay gave no signal (0 of 3 replicates).
For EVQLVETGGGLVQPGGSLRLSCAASKFTLNSYGISWVRQAPGKGPEWVSVIYSDGRRTFYGASVKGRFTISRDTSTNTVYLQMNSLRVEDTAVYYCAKGRAAGTFNSWGQGTLVTVSS, the assay gave no signal (0 of 3 replicates).
For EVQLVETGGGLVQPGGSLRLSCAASGFTLNSYGISWVRQAPGKGPEWVSVIYSDGRRHFYVDSVKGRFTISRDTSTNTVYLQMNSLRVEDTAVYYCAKGRAAGTFDSWGQGTLVTVSS, the assay gave 12 nM (3 of 3 replicates).
For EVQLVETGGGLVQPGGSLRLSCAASGFMLNSYGISWVRQAPGKGPEWVSVIYSDGRHTFYGDSVKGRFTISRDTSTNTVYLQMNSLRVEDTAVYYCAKGRAAGTFDSWGQGTLVTVSS, the assay gave no signal (0 of 3 replicates).
For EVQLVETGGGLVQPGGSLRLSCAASGFTLNSYCISWVRQAPGKGPEWVSVIYSDGRRTFYGDSVKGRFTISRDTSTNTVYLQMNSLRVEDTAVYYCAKGAAAGTFTSWGQGTLVTVSS, the assay gave no signal (0 of 3 replicates).
For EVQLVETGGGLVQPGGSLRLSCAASGFTLVSYGISWVRQAPGKGPEWVSVIYWDGRNTFYGDSVKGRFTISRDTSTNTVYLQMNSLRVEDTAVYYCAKGRAAGTFDSWGQGTLVTVSS, the assay gave no signal (0 of 3 replicates).
For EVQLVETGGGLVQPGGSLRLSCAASGHTLNSYGISWVRQAPGKGPEWVSFIYSDGRRTFYYDSVKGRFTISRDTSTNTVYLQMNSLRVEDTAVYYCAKGRAAGTFDSWGQGTLVTVSS, the assay gave no signal (0 of 3 replicates).
For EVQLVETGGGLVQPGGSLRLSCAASGFTLNSYGISWVRQAPGKGPEWVSVIYSDGGRTFFGDSVKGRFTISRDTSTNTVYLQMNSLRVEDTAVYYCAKGRAIGTFDSWGQGTLVTVSS, the assay gave 15 µM (3 of 3 replicates).

Repeated from above, the 2 best binders with a signal in all replicates:

VH	apparent Kd	replicates with signal
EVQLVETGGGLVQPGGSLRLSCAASGFTLNSYGISWVRQAPGKGPEWVSVIYSDGRRHFYVDSVKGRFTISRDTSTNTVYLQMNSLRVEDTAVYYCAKGRAAGTFDSWGQGTLVTVSS	12 nM	3/3
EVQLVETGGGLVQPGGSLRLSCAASGFTLNSYGISWVRQAPGKGPEWVSVIYSDGARTFATDSVKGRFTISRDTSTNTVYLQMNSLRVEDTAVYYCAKGRAAGTFDSWGQGTLVTVSS	99 nM	3/3